Test results taken from article PMC3578047 (European journal of pharmacology, 2012).

Sequences of proteins named here, by UniProt entry; tags and fusion partners are left off. A change or cut given only in a name is not applied to a line headed by its entry.
UniProt P80299: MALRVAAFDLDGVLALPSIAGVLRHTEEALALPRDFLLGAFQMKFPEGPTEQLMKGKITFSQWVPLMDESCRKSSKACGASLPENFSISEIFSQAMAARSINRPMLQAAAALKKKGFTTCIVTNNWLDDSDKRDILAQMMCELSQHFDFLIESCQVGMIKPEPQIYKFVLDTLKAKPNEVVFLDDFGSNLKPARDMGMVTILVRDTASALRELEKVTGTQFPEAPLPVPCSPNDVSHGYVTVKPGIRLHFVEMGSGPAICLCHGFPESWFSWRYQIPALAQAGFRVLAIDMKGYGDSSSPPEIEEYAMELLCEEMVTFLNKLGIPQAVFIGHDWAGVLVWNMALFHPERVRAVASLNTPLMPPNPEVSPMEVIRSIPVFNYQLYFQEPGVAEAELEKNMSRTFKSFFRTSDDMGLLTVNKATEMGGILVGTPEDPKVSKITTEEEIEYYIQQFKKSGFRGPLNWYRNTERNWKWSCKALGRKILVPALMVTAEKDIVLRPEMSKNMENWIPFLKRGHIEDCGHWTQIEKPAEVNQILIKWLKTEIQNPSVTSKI

Biological target: recombinant rat sEH (Rattus norvegicus, UniProt P80299)
Assay type: biochemical

For CC(=O)N1CCC(NC(=O)NC23CC4CC(CC(C4)C2)C3)CC1 [APAU, 1-(1-acetypiperidin-4-yl)-3-adamantanylurea], the “off rate from the enzyme” value was “much slower off rate from the rat recombinant sEH than corresponding mouse or human enzyme”.
